System: FASN, GCDFP-15, PRLR
Conditions: MDA-MB-453 cells; DHT

Compound: CNC(=O)c1ccc(N2C(=S)N(c3ccc(C#N)c(C(F)(F)F)c3)C(=O)C2(C)C)cc1F [enzalutamide]
- expression of androgen/AR-dependent genes FASN, GCDFP-15 and PRLR: reduced
